# Columns and labels:
# [1] = BBB permeability in brain-specific Gdnf knockdown mice (brain distribution of fluorescein and FITC-Dex); conditions: Gdnf silencing (shGdnf) vs shNC mice; i.v., 30 min
# [2] = not told
substance,measurement,setting,value
FITC-Dextran 3–5 kDa,brain-to-plasma concentration ratios,[1],notable increases
same,Papp Mean,[2],32.29 ×10⁻⁶ cm/s
